Like-named read-outs stand apart in the source and are kept apart here.
[1] = solvent 3M Novec 7500 + 4 wt % propane-2-ole

Substance | Solubility (solvent 3M Novec 71 IPA) | Solubility [1]
3-(1H,1H,2H,2H Perfluorooctyl)-1-vinyl-1H-imidazoliumiodide | 8 mg/mL | 6 mg/mL
3-(1H,1H,2H,2H-perfluorooctyl)-1-vinyl-1H-imidazoliumiodide cocrystal having 1-iodoperfluorooctane | 500 mg/mL | 53 mg/mL
